Target: Translocator protein (Homo sapiens, UniProt P30536)
Experiment: Displacement of [3H]-PK11195 from PBR after 1 hr by scintillation counting

Protein sequences, listed by entry. Tags and fused reporters are not part of them.
UniProt P30536, whole entry: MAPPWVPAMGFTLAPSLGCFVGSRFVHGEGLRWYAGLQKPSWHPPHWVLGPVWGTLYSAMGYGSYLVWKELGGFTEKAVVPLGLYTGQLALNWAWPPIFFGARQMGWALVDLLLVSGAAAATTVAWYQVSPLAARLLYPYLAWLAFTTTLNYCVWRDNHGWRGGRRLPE

In the case of `CCC(C)N(C)C(=O)c1cc2ccccc2c(-c2ccccc2Cl)n1` (stereo unspecified) [PK-11195], the IC50 is reported as 490 nM.

Reference: ChEMBL document CHEMBL1671831, “TSPO 18 kDa (PBR) Targeted Photosensitizers for Cancer Imaging (PET) and PDT” (ACS Med Chem Lett, 2011)
